Source: PubChem BioAssay AID743247 (Broad Institute, 2014)
The list shows a part of the results, in another mix than the full data. Some salts and complexes are drawn in separate pieces, as the source files them; their charges need not balance. Active and inactive are the calls of the source.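 Rule for the calls: active = mean inhibition across replicates of 30% or more, regardless of how many single replicates reach that level; inconclusive = mean under 30% yet at least half of replicates reach 30%; inactive = the rest.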

Experiment: blockers of fibronectin fibrillogenesis by fibroblasts – AH1F cells, Alexa488-fibronectin fluorescence, plate reader, primary screen (AID 743247);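 note: positive control wells lacked labelled fibronectin entirely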
Details: Alexa488-fibronectin deposition fluorescence, overnight, at 12.6 µM, stronger effect = higher value
Method in brief: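 material = AH1F fibroblast monolayer depositing Alexa488-labelled fibronectin into matrix | amount = 10000 AH1F cells/well | buffer or medium = DMEM plus 2% serum, read in PBS | incubation = 1 h cell adhesion before compound, then overnight fibronectin incubation | detection = fluorescence at 485 nm excitation, 525 nm emission | evaluation = percent inhibition as loss of matrix-bound fibronectin fluorescence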

Row | Structure (SMILES) | inhibition
1 | CCCCCCCCCCCCCCCC1C[N+](C)(C)CCOP(C)(=O)O1 (stereo unspecified) | inactive: -0.377%
2 | CP(=O)(OCCOc1ccccc1)OCCOc1ccccc1 | inactive: 9.43%
3 | COc1ccc(OP(C)(=O)Nc2ccccc2Br)cc1 (stereo unspecified) | inactive: 1.01%
4 | Cc1cc(C)cc(OP(C)(=O)Nc2cccc(C(F)(F)F)c2)c1 (stereo unspecified) | inactive: 6.63%
5 | O=C1C(O)=C([N+](=O)[O-])C(=O)C(O)=C1[N+](=O)[O-] | inactive: -5.21%
6 | COc1ccccc1OP(C)(=O)Nc1ccc(C)cc1C (stereo unspecified) | inactive: -0.179%
7 | Cc1c(NP(C)(=O)Oc2ccc(C(C)C)cc2)c(=O)n(-c2ccccc2)n1C (stereo unspecified) | inactive: -2.75%
8 | O=[N+]([O-])c1cc([N+](=O)[O-])c(Nc2ccccn2)c([N+](=O)[O-])c1 | inactive: -5.25%
9 | COc1ccc(OP(C)(=O)Nc2ccccn2)cc1 (stereo unspecified) | inactive: 9.78%
10 | CN(C)CCOC(=O)C(O)(c1ccccc1)C1CCCC1 (stereo unspecified) | inactive: -7.68%
11 | COc1ccccc1OP(C)(=O)Nc1ccc(Br)cc1 (stereo unspecified) | inactive: 3.85%
12 | CN(C)C(=O)c1c([N+](=O)[O-])cc([N+](=O)[O-])cc1[N+](=O)[O-] | inactive: 6.67%
13 | COc1ccccc1OP(C)(=O)Nc1ccccc1Br (stereo unspecified) | inactive: -34.6%
14 | CC(C)(C)c1ccc(OP(C)(=O)O)cc1 | inactive: -9.41%
15 | O=C(OCCCN1CCCC1)C(O)(c1ccccc1)C1CCCCC1 (stereo unspecified) | inactive: 7.46%
16 | COc1ccccc1OP(C)(=O)Nc1c(C)n(C)n(-c2ccccc2)c1=O (stereo unspecified) | inactive: -4.58%
17 | CCc1ccc(OP(C)(=O)Nc2cccnc2)cc1 (stereo unspecified) | inactive: 4.65%
18 | CCN(CC)CC(O)COC(=O)C(O)(c1ccccc1)C1CCCCC1 (stereo unspecified) | inactive: 11.2%
19 | CCOC(=O)c1ccc(NP(C)(=O)Oc2ccc(Cl)cc2)cc1 (stereo unspecified) | inactive: -3.23%
20 | CP(=O)(OC12CC3CC(CC(C3)C1)C2)OC12CC3CC(CC(C3)C1)C2 | inactive: 9.3%
21 | Nc1ccc2c(ccc3cccnc32)n1.O=[N+]([O-])c1cc([N+](=O)[O-])c(O)c([N+](=O)[O-])c1 | inactive: 0.675%
22 | Cc1c(C(c2ccc3c(c2)OCO3)c2c(C)n(C)n(-c3ccccc3)c2=O)c(=O)n(-c2ccccc2)n1C.O=[N+]([O-])c1cc([N+](=O)[O-])c(O)c([N+](=O)[O-])c1 | inactive: -6.3%
23 | O=[N+]([O-])c1ccc(OP2(=O)COCCO2)cc1 (stereo unspecified) | inactive: -6.21%
24 | Cc1cc(-c2cccc3ccccc23)c(C)cn1.O=[N+]([O-])c1cc([N+](=O)[O-])c(O)c([N+](=O)[O-])c1 | inactive: 5.09%
25 | O=[N+]([O-])c1cc([N+](=O)[O-])c(NCC2CCS(=O)(=O)C2)c([N+](=O)[O-])c1 (stereo unspecified) | inactive: -17.9%
26 | COc1ccc(NP(C)(=O)Oc2ccccc2OC)cc1 (stereo unspecified) | inactive: 3.23%

Row | Structure (SMILES) | inhibition
27 | COc1ccc(OP(C)(=O)Nc2cccc(Br)c2)cc1 (stereo unspecified) | inactive: 0.645%
28 | O=[N+]([O-])c1cc([N+](=O)[O-])c(C(F)(F)F)c([N+](=O)[O-])c1O | inactive: -13.7%
29 | CCOP(C)(=S)SCC(=O)NC(C)(CC)C(=O)O (stereo unspecified) | inactive: -3.79%
30 | CP(=O)(Nc1ccc(SC(F)(F)F)cc1)Oc1ccc(F)cc1 (stereo unspecified) | inactive: -0.88%
31 | COc1ccc2c(c1O)-c1c(O)c(OC)cc3c1[C@H](C2)[N+](C)(C)CC3.O=[N+]([O-])c1cc([N+](=O)[O-])c([O-])c([N+](=O)[O-])c1[O-] | inactive: 1.74%
32 | O=C(OC1CN2CCC1CC2)c1ccc([N+](=O)[O-])cc1 (stereo unspecified) | inactive: -1.94%
33 | O=C(OCCN1CCN(CCOCc2ccccc2)CC1)C(O)(c1ccccc1)c1ccccc1 | inactive: -0.156%
34 | CC(C)c1ccc(OP(C)(=O)Nc2ccc(SC(F)(F)F)cc2)cc1 (stereo unspecified) | inactive: -4.69%
35 | O=[N+]([O-])c1cc([N+](=O)[O-])c(Nc2ccc(Cl)cc2)c([N+](=O)[O-])c1 | inactive: 9.64%
36 | CP(=O)(Nc1ccccc1)Oc1ccc(F)cc1 (stereo unspecified) | inactive: 0.785%
37 | O=[N+]([O-])c1cc([N+](=O)[O-])c(OC2CCCCC2O)c([N+](=O)[O-])c1 (stereo unspecified) | inactive: -5.82%
38 | CCCCCOc1ccc(NP(C)(=O)Oc2ccc(Cl)cc2Cl)cc1 (stereo unspecified) | inactive: -12.2%
39 | Cc1c([N+](=O)[O-])cc([N+](=O)[O-])c(Br)c1[N+](=O)[O-] | inactive: -2.86%
40 | CCOC(=O)c1ccc(NP(C)(=O)Oc2ccc(F)cc2)cc1 (stereo unspecified) | inactive: -5.32%
41 | COc1ccc(OP(C)(=O)Nc2ccc(SC(F)(F)F)cc2)cc1 (stereo unspecified) | inactive: 3.78%
42 | CCN(CC)CCCNc1ccccc1[N+](=O)[O-].O=[N+]([O-])c1cc([N+](=O)[O-])c(O)c([N+](=O)[O-])c1 | inactive: -7.35%
43 | CC1=NCCc2c1[nH]c1ccccc21.O=[N+]([O-])c1cc([N+](=O)[O-])c(O)c([N+](=O)[O-])c1 | inactive: 1.01%
44 | O=C(O)c1cccc(Nc2c([N+](=O)[O-])cc([N+](=O)[O-])cc2[N+](=O)[O-])c1 | inactive: -3.24%
45 | CP(=O)(Nc1cccc(Br)c1)Oc1ccccc1 (stereo unspecified) | inactive: -7.12%
46 | CCOC(=O)c1ccc(NP(C)(=O)Oc2cc(C)cc(C)c2)cc1 (stereo unspecified) | inactive: 3.88%
47 | COc1ccccc1OP(C)(=O)Nc1cccc(Br)c1 (stereo unspecified) | inactive: -4%
48 | Cc1nc2ccc3ccccc3c2s1.O=[N+]([O-])c1cc([N+](=O)[O-])c(O)c([N+](=O)[O-])c1 | inactive: 5.57%
49 | O=[N+]([O-])c1cc([N+](=O)[O-])c(-c2cnn(-c3ccccc3)c2)c([N+](=O)[O-])c1 | inactive: 1.03%
50 | CN(Cc1cccnc1)C(=O)COc1ccc(Cl)c(Cl)c1.O=[N+]([O-])c1cc([N+](=O)[O-])c(O)c([N+](=O)[O-])c1 | inactive: -10.4%
51 | COc1ccc(-c2ccccn2)cc1.O=[N+]([O-])c1cc([N+](=O)[O-])c(O)c([N+](=O)[O-])c1 | inactive: -6.49%
